Source: article PMC4764975, “Probing the enzyme kinetics, allosteric modulation and activation of α1- and α2-subunit-containing AMP-activated protein kinase (AMPK) heterotrimeric complexes by pharmacological and physiological activators” (Biochemical Journal, 2016)

The chains behind the UniProt entries cited, without tags or fusion partners.
UniProt Q13131, whole entry, chain 1 of 3: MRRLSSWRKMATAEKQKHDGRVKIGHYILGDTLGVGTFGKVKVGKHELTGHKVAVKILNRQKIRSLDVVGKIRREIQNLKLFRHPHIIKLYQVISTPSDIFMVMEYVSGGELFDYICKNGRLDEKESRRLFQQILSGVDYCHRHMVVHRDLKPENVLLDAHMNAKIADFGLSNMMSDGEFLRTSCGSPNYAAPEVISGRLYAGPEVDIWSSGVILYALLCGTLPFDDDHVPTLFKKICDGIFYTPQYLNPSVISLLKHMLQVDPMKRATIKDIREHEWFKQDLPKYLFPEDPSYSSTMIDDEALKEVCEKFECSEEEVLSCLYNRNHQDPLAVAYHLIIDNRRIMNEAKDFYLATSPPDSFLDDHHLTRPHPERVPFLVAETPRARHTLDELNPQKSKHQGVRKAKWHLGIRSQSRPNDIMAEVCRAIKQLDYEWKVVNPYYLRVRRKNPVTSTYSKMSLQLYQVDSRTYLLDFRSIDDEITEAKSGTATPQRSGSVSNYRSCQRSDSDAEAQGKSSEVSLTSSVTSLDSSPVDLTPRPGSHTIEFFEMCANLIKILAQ
UniProt P54646, whole entry, chain 1 of 3: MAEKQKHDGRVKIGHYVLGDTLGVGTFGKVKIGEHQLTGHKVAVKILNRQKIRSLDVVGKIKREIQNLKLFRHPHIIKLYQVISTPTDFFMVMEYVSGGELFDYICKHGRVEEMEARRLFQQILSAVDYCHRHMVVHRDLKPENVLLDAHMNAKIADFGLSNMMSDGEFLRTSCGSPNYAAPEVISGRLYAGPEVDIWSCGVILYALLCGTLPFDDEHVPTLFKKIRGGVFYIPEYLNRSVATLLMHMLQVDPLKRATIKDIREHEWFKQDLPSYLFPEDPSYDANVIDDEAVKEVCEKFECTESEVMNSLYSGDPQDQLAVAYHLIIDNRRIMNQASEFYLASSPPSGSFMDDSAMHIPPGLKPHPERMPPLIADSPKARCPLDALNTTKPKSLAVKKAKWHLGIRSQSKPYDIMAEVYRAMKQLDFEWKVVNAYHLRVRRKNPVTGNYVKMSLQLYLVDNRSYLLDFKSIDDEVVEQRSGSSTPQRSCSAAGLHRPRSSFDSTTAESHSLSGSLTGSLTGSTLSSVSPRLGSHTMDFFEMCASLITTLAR

Columns and labels:
[1] = target: AMPK heterotrimeric complex α1β1γ1 (UniProt Q13131)
[2] = target: AMPK heterotrimeric complex α1β2γ3 (UniProt Q13131)
[3] = target: AMPK heterotrimeric complex α2β2γ3 (UniProt P54646)

For SAMS peptide, the Km for SAMS peptide (radiometric kinase assay, fixed ATP, no AMP) [1] was 26.7 µM, the Km for SAMS peptide (radiometric kinase assay, fixed ATP, no AMP) [2] was 37.3 µM and the Km for SAMS peptide (radiometric kinase assay, fixed ATP, no AMP) [3] was 80 µM.
